Experimental data taken from patent publication US20070142290A1, “SURFACE-MODIFIED SERUM ALBUMIN-METAL PORPHYRIN COMPOSITE, AND OXYGEN INFUSION SOLUTION CONTAINING THE SAME” (Eishun Tsuchida, priority 2004, published 2007).

Assay: oxygen adsorption/desorption followed by ultraviolet-visible absorption spectrum
Format: physicochemical
Details: aqueous solution, alternately blowing oxygen and nitrogen
Protocol: The surface-modified serum albumin-iron(II) porphyrin complex (carbon monoxide complex) aqueous solution (4 mL) prepared in Example 1 was put into a 1 cm quartz cell for spectroscope, and, light was irradiated onto the porphyrin iron(II) complex coupled albumin aqueous solution (10 minutes) by using a halogen lamp (500 W), while being cooled in ice water and passing (flowing) oxygen therethrough. Thereafter, ultraviolet-visible absorption spectrum measurement of the obtained aqueous solution was carried out. After confirmation of the formation of an oxygen complex, nitrogen was passed therethrough to effect deoxygenation, preparing the deoxy form. […] In addition, it was possible to carry out the adsorption/desorption of oxygen successively by repeating an operation of blowing oxygen and then blowing nitrogen.

Example 1: polyoxyethylene (Mw 5,000) surface-modified human serum albumin clathrating 2-(N-(8-(2-methylimidazolyl)octanoyloxy))methyl-5,10,15,20-tetrakis(α,α,α,α-o-(1-methylcyclohexanamido)phenyl)porphinato iron(II); 6 chains in average
reversibility of oxygen adsorption/desorption: adsorption/desorption of oxygen reversibly takes place
